The results in this text go back to US8530490B2, “Uracil compound or salt thereof having human deoxyuridine triphosphatase inhibitory activity” (Taiho Pharmaceutical Co., Ltd., priority 2008, dated 2013).

Sequences of proteins named here, by UniProt entry; tags and fusion partners are left off. Residues count along the entry.
UniProt P33316, 94-252: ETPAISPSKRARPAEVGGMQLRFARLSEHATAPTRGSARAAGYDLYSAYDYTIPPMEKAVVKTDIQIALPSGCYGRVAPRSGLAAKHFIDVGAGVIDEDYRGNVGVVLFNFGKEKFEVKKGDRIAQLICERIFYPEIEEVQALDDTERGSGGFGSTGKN

This test deals with human dUTPase (Homo sapiens (Human), UniProt P33316). Nature of the test: Human dUTPase inhibitory effect: production of [5-3H]dUMP from [5-3H]dUTP, measured by HPLC with flow scintillation. Particulars: [5-3H]dUMP production from [5-3H]dUTP, 37° C., 15 minutes. The format is biochemical. The protocol: The inhibitory activity of the compound of the present invention against human dUTPase was determined by measuring the production of [5-^3H]deoxyuridine monophosphate (hereinafter, referred to as [5-^3H]dUMP) from [5-^3H]deoxyuridine triphosphate (hereinafter, referred to as [5-^3H]dUTP) according to a method shown below.
Specifically, 0.2 mL in total of a solution containing 0.02 mL of 1 μM dUTP (including 588 Bq/mL [5-3H]dUTP), 0.05 mL of a 0.2 M Tris buffer solution (pH 7.4), 0.05 mL of 16 mM magnesium chloride, 0.02 mL of 20 mM 2-mercaptoethanol, 0.02 mL of a 1% aqueous solution of fetal bovine serum-derived albumin, 0.02 mL of varying concentrations of test compound solutions or pure water as a control, and 0.02 mL of a solution of human dUTPase (expressed using E. coli and purified) was reacted at 37° C. for 15 minutes. Immediately after the reaction, the solution was heated at 100° C. for 1 minute to terminate the reaction, followed by centrifugation at 15000 rpm for 2 minutes. An aliquot (150 μL) of the supernatant thus obtained by centrifugation was analyzed using an Atlantis dC18 column (manufactured by Waters Corp., 4.6×250 mm) and a high-performance liquid chromatograph (manufactured by Shimadzu Corp., Prominence). […]
The inhibitory activity of the test compound was determined according to the formula shown below.

The term IC50 denotes the concentration at which inhibition is half-maximal. A high value points to weaker potency in that assay.

In the case of `O=c1ccn(COCCCS(=O)(=O)NCc2cccc(OC(CF)CF)c2)c(=O)[nH]1` [Example 50, N-(3-(1,3-difluoropropan-2-yloxy)benzyl)-3-((2,4-dioxo-3,4-dihydropyrimidin-1(2H)-yl)methoxy)propane-1-sulfonamide], 2030 nM corresponded to half-maximal inhibition (IC50).
